## Binding of CDR-mutated scFvs to a peptide of the spike HR2 region

Antigen: PDVDLGDISGINAS, a 14-residue peptide of the SARS-CoV-2 spike HR2 region.

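The variants were designed computationally from a first round of random CDR variants and then made and measured. Their group label is 14H_En_Gen (En: ensemble of fine-tuned language models; Gen: genetic algorithm). The scFvs were displayed on barcoded MATa yeast, the peptide on MATalpha yeast. After mating in shaken culture at 30 °C for 16 h, diploids were selected and their barcode pairs sequenced. Read counts were normalised to the haploid input and turned into Kd by a linear fit to BCL2-family pairs of known affinity, for each replicate. There are six technical replicates.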

Each scFv is VH, the linker GGGGSGGGGSGGGGS, VL, as in the parent Ab-14, and differs from it in the CDRs of the heavy chain only.
VH: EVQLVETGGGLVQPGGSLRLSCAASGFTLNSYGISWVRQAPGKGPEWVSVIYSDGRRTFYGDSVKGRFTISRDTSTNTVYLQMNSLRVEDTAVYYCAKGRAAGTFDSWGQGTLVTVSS
VL: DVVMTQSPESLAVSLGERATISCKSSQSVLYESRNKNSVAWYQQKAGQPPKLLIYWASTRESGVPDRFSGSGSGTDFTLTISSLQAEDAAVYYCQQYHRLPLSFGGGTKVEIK

Each variant is given by its three heavy chain CDRs, as the data file delimits them; those of the parent are GFTLNSYGIS, VIYSDGRRTFYGDSVK, GRAAGTFDS.
Numbers give log10(Kd / nM), so 0 is 1 nM and 3 is 1 µM. Smaller is tighter.
Averages over replicates are reported, and they cover detected replicates only.
An entry "nd" has no value in the source: the pair was not observed among the diploids in that replicate. This suggests poor binding but is not conclusive.
Empty control strains, which show no peptide, gave a signal in 1% of pairings with all heavy chain designs; the median was 2.08 and 95% of these signals were weaker than 0.84. No background was subtracted. The control count says in how many pairings with the empty strains this scFv gave a signal, with their mean in brackets.

CDR-H1,CDR-H2,CDR-H3,"log10 Kd, replicates","mean, log10 nM",control signals
GFDLNEYGIS,VIYADGVRTAYADSVK,GNHAGTFDL,-0.63 -0.80 -0.58 -0.46 -0.80 -0.57,-0.64,0/18
GFDLDEYGIS,VIYADGMRTAYTDSVK,GEVAGTFDI,-0.11 -0.31 -0.34 -0.14 0.18 -0.01,-0.12,0/18
GFDLNEYGIS,VIYADGQRTAYVDSVK,GNVAGTFDM,-0.18 -0.59 -0.53 -0.66 -0.65 -0.24,-0.48,0/18
GFDINEYGIS,VIYADGKRTAYADSVK,GNVAGTFDV,-0.32 -0.55 -0.68 -0.24 -0.65 -0.06,-0.42,0/18
GFDLDEYGIS,VIYADGQRTAYADSVK,GNEAGTFDQ,-0.05 -0.07 0.16 -0.07 -0.08 0.15,0.01,0/18
GFDLNEYGIS,VIYADGRRTYYADSVK,GETAGTFDV,-0.28 -0.46 -0.59 -0.48 -0.58 -0.48,-0.48,1/18 (2.14)
GFDLDEYGIS,VIYADGKRTFYADSVK,GEVAGTFDL,nd 0.51 0.41 -0.05 -1.13 nd,-0.07,0/18
GFDLDEYGIS,VIYADGKRTAYADSVK,GNEAGTFDQ,-0.40 -0.60 -0.69 -0.95 -0.65 -0.38,-0.61,1/18 (1.85)
GFDLNEYGIS,VIYADGKRTAYSDSVK,GANAGTFDI,-1.42 -0.82 -1.50 -1.02 -0.93 -1.13,-1.14,0/18
GFDLNEYGIS,VIYADGMRTVYADSVK,GNNAGTFDL,0.86 -1.48 -0.79 -1.49 -1.45 -1.56,-0.99,0/18
GFDLNEYGIS,VIYADGRRTAYSDSVK,GQNAGTFDI,-0.63 -0.59 -0.76 -0.68 -1.00 -0.13,-0.63,0/18
GFDLNEYGIS,VIYADGMRSAYADSVK,GENAGTFDV,0.03 -0.19 -0.22 -0.28 -0.24 -0.12,-0.17,3/18 (2.34)
GFDLNEYGIS,VIYADGVRTAYADSVK,GNTAGTFDQ,-1.49 -1.08 -2.12 -1.39 -1.22 -1.37,-1.45,0/18
GFDLNEYGIS,VIYADGRRTAYADSVK,GTNAGTFDQ,-0.90 -1.03 -1.18 -1.36 -0.93 -1.20,-1.10,0/18
GFDLNEYGIS,VIYADGQRTAYADNVK,GQNAGTFDV,-0.38 0.47 -0.25 -0.73 0.29 -0.54,-0.19,0/18
GFDLNEYGIS,VIYADGVRTAYSDSVK,GENAGTFDT,-0.12 -0.02 0.35 -0.25 -0.34 -0.05,-0.07,1/18 (1.75)
GFDLNEYGIS,VIYADGKRTVYADSVK,GENAGTFDV,-1.08 -0.70 -1.16 -1.24 -1.56 -0.82,-1.10,1/18 (0.78)
GFDLNEYGIS,VIYADGRRTAYVDDVK,GNVAGTFDV,-0.31 -0.57 -0.61 -0.61 -0.63 -0.24,-0.49,0/18
GFDLNEYGIS,VIYADGRRTAYADNVK,GQNAGTFDV,-0.18 -0.59 -0.32 -0.50 -0.71 -0.21,-0.42,2/18 (2.06)
GFDLNEYGIS,VIYADGMRTSYADSVK,GNQAGTFDL,0.63 0.99 -0.08 -0.20 0.32 0.15,0.30,0/18
GFDLNEYGIS,VIYADGMRTAYVDDVK,GTNAGTFDV,0.03 0.42 -0.07 0.04 -0.11 -0.62,-0.05,1/18 (1.81)
GFDLNEYGIS,VIYADGVRTSYADDVK,GNVAGTFDI,-0.23 0.03 -0.36 -0.70 0.19 -0.13,-0.20,0/18
GFDLNEYGIS,VIYADGMRTAYIDSVK,GENAGTFDL,-0.20 -0.95 -1.01 -0.96 -0.08 -0.57,-0.63,0/18
GFDLDEYGIS,VIYADGRRTAYSDSVK,GNNAGTFDL,0.00 -0.21 -0.23 -0.40 -0.55 -0.01,-0.23,0/18
GFDLNEYGIS,VIYADGMRTAYADKVK,GNQAGTFDV,-0.38 -0.79 -0.73 -0.96 -0.51 -0.49,-0.64,0/18
GFDLNEYGIS,VIYADGMRTAYVDDVK,GENAGTFDQ,nd nd nd 1.62 1.47 1.98,1.69,0/18
GFDLDEYGIS,VIYADGMRTAYADDVK,GQVAGTFDV,-0.60 -0.95 -0.60 -0.81 -0.57 -0.67,-0.70,0/18
GFDLDEYGIS,VIYADGVRTAYSDSVK,GNVAGTFDQ,-0.04 -0.13 0.26 -0.27 -0.18 -0.19,-0.09,0/18
GFDLDEYGIS,VIYADGMRTFYADSVK,GNQAGTFDI,0.00 0.01 -1.24 -0.48 -0.84 -0.91,-0.58,0/18
GFDLNEYGIS,VIYADGRRTYYADSVK,GTNAGTFDV,0.40 1.01 0.22 -0.06 0.31 0.06,0.32,1/18 (0.97)
GFDLEDYGIS,VIYADGMRTAYADSVK,GNEAGTFDV,-0.76 -0.97 -0.81 -0.75 -0.84 -0.64,-0.79,0/18
GFDLDEYGIS,VIYADGMRTAYADSVK,GEVAGTFDA,-0.05 -0.28 -0.28 -0.76 -0.47 -0.23,-0.34,0/18
GFDLDEYGIS,VIYADGKRTAYVDSVK,GNNAGTFDV,0.18 1.11 0.27 -0.15 0.29 0.31,0.34,0/18
GFDLDEYGIS,VIYADGSRTAYADSVK,GNTAGTFDV,0.70 0.10 0.09 -0.26 -0.04 0.00,0.10,0/18
GFDLNEYGIS,VIYADGSRTAYVDSVK,GEVAGTFDV,-0.10 -0.37 -0.63 -0.49 -0.62 -0.38,-0.43,0/18
GFDLDEYGIS,VIYADGMRTYYADSVK,GTNAGTFDV,nd nd nd -1.60 -0.49 -0.48,-0.86,0/18
GFDLNEYGIS,VIYADGRRTAYADDVK,GNNAGTFDL,-0.22 -0.22 -0.26 0.13 -0.55 -0.42,-0.26,0/18
GFDLDEYGIS,VIYADGQRTAYVDSVK,GNVAGTFDL,-0.51 -0.70 -0.69 -1.07 -0.40 -0.12,-0.58,0/18
GFDLNEYGIS,VIYADGVRTSYVDSVK,GENAGTFDV,nd nd nd -0.80 1.88 1.38,0.82,0/18
GFDLNEYGIS,VIYADGMRTAYADSVK,GNEAGTFDT,nd nd nd nd nd nd,nd,0/18
GFDLDEYGIS,VIYADGMRTAYTDDVK,GNVAGTFDV,-0.61 -0.69 -0.86 -0.84 -0.98 -0.61,-0.77,0/18
GFDLDEYGIS,VIYADGMRTAYSDKVK,GEVAGTFDV,-0.60 -0.01 1.47 0.61 -0.13 0.93,0.38,0/18
GFDLNEYGIS,VIYADGKRTAYADSVK,GANAGTFDM,-0.36 -0.22 -0.65 -0.30 -0.25 -0.09,-0.31,0/18
GFDLNEYGIS,VIYADGKRTAYVDSVK,GENAGTFDV,0.95 0.36 0.41 0.28 0.15 0.38,0.42,1/18 (2.46)
GFDLNEYGIS,VIYADGVRTAYVDSVK,GENAGTFDI,-0.22 -0.04 -0.55 -0.46 -0.28 -0.04,-0.27,1/18 (1.51)
GFDLNEYGIS,VIYADGMRTAYANDVK,GEVAGTFDV,-0.36 -0.59 -0.44 -0.69 -0.73 -0.61,-0.57,0/18
GFDLDEYGIS,VIYADGMRTAYADSVK,GSNAGTFDI,0.27 0.08 0.54 0.10 -0.10 0.12,0.17,1/18 (2.94)
GFDLEDYGIS,VIYADGQRTAYADSVK,GNVAGTFDT,-0.14 0.14 -0.09 -0.36 -0.52 -0.02,-0.17,0/18
GFDLDEYGIS,VIYADGMRTAYTDSVK,GGNAGTFDL,1.31 1.07 0.91 1.28 1.34 1.22,1.19,1/18 (2.18)

A sequence measured in both rounds can read differently, since the two assays cover different ranges.
The authors' rule: three or more of the six replicates give a measured affinity, fewer mean a poor binder.

Source: Li et al. 2023 (doi:10.1038/s41467-023-39022-2), MIT Lincoln Laboratory and A-Alpha Bio; data file from the FLAb repository.